This data set deals with Dogs. In words: Subacute toxicity in dogs. Particulars: dog, in vivo. The text has this: • clinical signs of toxicity, • body weight, • haemodynamic parameters, • haematology and • biochemical parameters TABLE 7

In the case of Adriamycin^®, the “Kidney Function Test: blood urea nitrogen (BUN) and creatinine” value is “Increase”. Also, for the setting “1 mg/kg”, the “Haemodynamic Parameters: Blood pressure” value is “Normal”.

For the origin of these results see patent publication EP1435231B1, “Non-pegylated long-circulating liposomes” (Bharat Serums & Vaccines Ltd., priority 2002, dated 2004).
